# Measurements: PubChem BioAssay AID463075 (University of Pittsburgh Molecular Library Screening Center, 2010)
# Only a part is listed here, and it is no random draw. Active and inactive are the calls of the source.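 The calls were made as follows: active = activation, meaning protection from cell death, of at least 50% relative to plate controls; inactive = activation below 50%.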
# Assay: inhibitors of TNF-alpha triggered necroptosis, primary screen, cell-based, Jurkat FADD-/-, single concentration (AID 463075);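 also: necroptosis triggered by 40 ng/mL TNF-alpha added together with compound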
# Details: Jurkat FADD-/- TNF necroptosis rescue, ATP luminescence, 24 h; at 10 µM; hits give high values; 0 = TNF only, 100 = no-TNF cells
row,Structure (SMILES),activation (protection from cell death)
1,O=C(COc1ccccc1)OC1CN2CCC1CC2 (stereo not drawn),inactive: 0.842%
2,COP1(=S)c2c(C)nn(CCC#N)c2N=C(c2ccc(F)cc2)N1C (stereo not drawn),inactive: -0.551%
3,CCC(C)N(CC(C)C)C(=S)SC(NC(C)=O)C(Cl)(Cl)Cl (stereo not drawn),inactive: -1.64%
4,CCOC(=O)c1ccc(NC(=O)C(C)(CCl)SC)cc1 (stereo not drawn),inactive: 2.12%
5,Cc1cc(SC(NC(=O)c2ccccc2)C(Cl)(Cl)Cl)nc(C(C)C)n1 (stereo not drawn),inactive: 0.785%
6,CCOC(=O)Nc1ccc([As](=O)(O)O)c(O)c1,inactive: 0.597%
7,O=[N+]([O-])c1ccc(Nc2ccc(Oc3ccc([N+](=O)[O-])cc3[N+](=O)[O-])cc2)c([N+](=O)[O-])c1,inactive: -6.58%
8,Cc1cc(SC(NC=O)C(Cl)(Cl)Cl)ncn1 (stereo not drawn),inactive: -1.56%
9,O=P(Nc1ccccn1)(c1cccc2ccccc12)c1cccc2ccccc12,inactive: -2.19%
10,CCOC(=O)Nc1cccc([As](=O)(O)O)c1,inactive: 0.855%
11,Cc1ccc2nc3c(c(C)c2c1)CC(C(Cl)Cl)S3 (stereo not drawn),inactive: 2.18%
12,Cc1ccc(OP(=O)(Nc2ccc([N+](=O)[O-])cn2)Oc2ccc(C)cc2)cc1,inactive: -0.123%
13,O=[As](O)(c1ccc(O)cc1)c1ccccc1O,inactive: 0.805%
14,C[As](=O)(O)c1cccc(C(=O)O)c1,inactive: 1.61%
15,O=[N+]([O-])c1cc([N+](=O)[O-])c(-c2ccn[nH]2)s1,inactive: -7.87%
16,CC(C)NC(=O)NP(=O)(Oc1ccccc1)Oc1ccccc1,inactive: 3.36%
17,CCN(CC)C(=S)SC(NC=O)C(Cl)(Cl)Cl (stereo not drawn),inactive: -10.2%
18,CC(C)c1ccc(OP(=O)(Nc2ccccn2)Oc2ccccc2F)cc1 (stereo not drawn),inactive: -2.11%
19,ClCCSc1nnc(-c2cccnc2)o1,inactive: -1.61%
20,COc1cc(I)ccc1[As](=O)(O)O,inactive: -0.397%
21,COc1ccc2nc(NP(=O)(c3ccccc3)c3ccccc3)sc2c1,inactive: 2.51%
22,Cc1cc(=O)[nH]c(N[N+](=O)[O-])n1,inactive: 1.18%
23,O=C(OC1CN2CCC1CC2)C12CC3CC(CC(C3)C1)C2 (stereo not drawn),inactive: 1.16%
24,Cc1c2c(nc3ccccc13)SC(C(Cl)Cl)C2 (stereo not drawn),inactive: 2.54%
25,COc1ccc(N/C(=N/P(=O)(N2CCOCC2)N2CCOCC2)N2CCOCC2)cc1,inactive: 0.921%
26,Cc1cccc(OCC(=O)OC2CN3CCC2CC3)c1 (stereo not drawn),inactive: 0.928%

row,Structure (SMILES),activation (protection from cell death)
1,O=[As](O)(c1cccc(O)c1)c1cccc(O)c1,inactive: 0.0347%
2,O=[As](O)(O)c1cccnc1,inactive: 1.28%
3,O=C(OC1CN2CCC1CC2)c1ccc(Cl)cc1 (stereo not drawn),inactive: 2.99%
4,CCOP(=O)(Nc1cccc2ccccc12)OCC,inactive: -0.687%
5,COc1cc(C2NCCC3(OCCO3)C2(C)C)cc(OC)c1OC (stereo not drawn),inactive: 1.44%
6,CCCOP(=S)(Nc1nc(N)cc(=O)[nH]1)OCCC,inactive: 1.59%
7,Cc1ccc(NCCc2c([N+](=O)[O-])cc([N+](=O)[O-])cc2[N+](=O)[O-])cc1,inactive: -4.46%
8,Nc1cccc2c([As](=O)(O)O)cccc12,inactive: 3.95%
9,O=C(O)COc1ccc([As](=O)(O)O)cc1[N+](=O)[O-],inactive: 1.04%
10,Nc1ccccc1[As](=O)(O)c1ccccc1,inactive: 1.1%
11,CS(=O)(=O)c1cc([N+](=O)[O-])c2no[n+]([O-])c2c1,inactive: -0.989%
12,O=P(Nc1nccs1)(Oc1ccccc1)Oc1ccccc1,inactive: 0.0939%
13,O=P(Nc1nccs1)(c1ccccc1)c1nc2ccccc2s1 (stereo not drawn),inactive: 2.27%
14,CCOP1(=S)c2c(C)nn(CCC#N)c2N=C(c2ccccc2F)N1C (stereo not drawn),inactive: -1.66%
15,O=[N+]([O-])c1ccc2c(c1)nnn2O,inactive: -0.0579%
16,CN(C(=O)Cc1ccccc1)[C@@H]1CC[C@]2(CCCO2)C[C@H]1N1CCCC1,inactive: 0.79%
17,CCOP1(=S)c2c(C)nn(CCC#N)c2N=C(c2ccc(F)cc2)N1C (stereo not drawn),inactive: -2.1%
18,NC(=O)Nc1ccc([As](=O)(O)O)cc1,inactive: 1.02%
19,O=C(/C=C/c1ccccc1)OC1CN2CCC1CC2 (stereo not drawn),inactive: 4.64%
20,CC1CCC(C(C)C)C(OP(=O)(Nc2ccccn2)c2ccccc2)C1 (stereo not drawn),inactive: -1.58%
21,Cc1nn(-c2ccccc2)c2c1P(=O)(N1CCOCC1)N(C)C(c1ccccc1)=N2 (stereo not drawn),inactive: -1.59%
22,Cc1ccc(OCC(=O)OC2CN3CCC2CC3)cc1 (stereo not drawn),inactive: -0.621%
23,O=[As](O)(c1cccs1)c1cccs1,inactive: 0.696%
24,O=P1(Nc2ccc(Br)cn2)COc2ccccc2OC1,inactive: 1.52%
25,Nc1cccc([As](=O)(O)c2ccccc2)c1,inactive: 0.135%
26,O=P1(Nc2ncccn2)COc2ccccc2OC1,inactive: 0.741%

row,Structure (SMILES),activation (protection from cell death)
1,CC(C)(C)C(=O)NC(Sc1ncccn1)C(Cl)(Cl)Cl (stereo not drawn),inactive: -1.19%
2,Clc1n[nH]nc1-c1nn[nH][15n]1,inactive: 0.353%
3,CCOP(=O)(Nc1ccc(C)cn1)OCC,inactive: 1.98%
4,O=P1(Nc2ccccn2)COc2ccccc2OC1,inactive: -0.454%
5,CC1(CBr)Cn2c(nc3ccccc3c2=O)S1 (stereo not drawn),inactive: -3.47%
6,O=[As](O)(c1ccccc1Br)c1ccccc1Br,inactive: 1.88%
7,CC(C)/C=N\N=C(\N)N[N+](=O)[O-],inactive: -0.231%
8,c1nnnn1CCn1cnnn1,inactive: -2.88%
9,O=P(Nc1nccs1)(c1ccccc1)c1ccccc1,inactive: -1.03%
10,CC(C)C(=O)NC(Sc1ccccc1)C(Cl)(Cl)Cl (stereo not drawn),inactive: 0.837%
11,C[C@H]1OP(=O)(Oc2ccccc2)[C@H](O)[C@H](O)[C@H]1N=[N+]=[N-] (stereo partly drawn),inactive: -1.16%
12,O=P(Nc1nc2ccccc2s1)(c1ccccc1)c1ccccc1,inactive: -0.596%
13,O=P(Nc1ccccn1)(c1ccc(Br)cc1)c1ccc(Br)cc1,inactive: 1.15%
14,C(Cc1nn[nH]n1)Cc1nn[nH]n1,inactive: 1.27%
15,Nc1ccc([As](=O)(O)c2ccc([N+](=O)[O-])cc2)cc1,inactive: 4.28%
16,O=C(OC1CN2CCC1CC2)c1cccc(Cl)c1 (stereo not drawn),inactive: 0.686%
17,CC(=O)NC(SC(=S)N(C)C)C(Cl)(Cl)Cl (stereo not drawn),inactive: -21.4%
18,O=[N+]([O-])c1ncn(CCn2cnc([N+](=O)[O-])n2)n1,inactive: 1.63%
19,O=[As](O)(c1ccccc1)c1ccc(O)cc1,inactive: -0.801%
20,O=C(NC1CCS(=O)(=O)C1)NP(=S)(Oc1ccccc1)Oc1ccccc1 (stereo not drawn),inactive: -1.54%
21,CCNC(=S)/N=C(\N)N[N+](=O)[O-],inactive: 0.463%
22,Cc1ccc(NP(=O)(Oc2cccc(C)c2)Oc2cccc(C)c2)nc1,inactive: -0.286%
23,CCOC(=O)NC(Sc1ccccc1)C(Cl)(Cl)Cl (stereo not drawn),inactive: -11%
24,c1ccc(-c2nn[nH]n2)c(-c2nn[nH]n2)c1,inactive: 0.654%
25,O=c1c2cc([N+](=O)[O-])ccc2[nH]c2c([N+](=O)[O-])cc([N+](=O)[O-])cc12,inactive: -8.52%
26,CN(C)C(=O)Oc1noc2ccccc12,inactive: 1.04%

row,Structure (SMILES),activation (protection from cell death)
1,Cc1ccccc1OP(=O)(Nc1ccccn1)Oc1ccccc1C,inactive: -9.95%
2,CC(=O)NC(SC(=S)N(CC(C)C)CC(C)C)C(Cl)(Cl)Cl (stereo not drawn),inactive: 4.51%
3,Cc1ccc(OP(=O)(Nc2ccccn2)Oc2ccc(C)cc2)cc1,inactive: 0.291%
4,COC(=O)c1cc2c(s1)N=C(c1ccccc1)N(C)P2(=O)N1CCOCC1 (stereo not drawn),inactive: 0.149%
5,CCC(=O)N1C2C3N(C(=O)CC)C1C1N(C(=O)CC)C(C(N1C(=O)CC)N3C(=O)CC)N2C(=O)CC,inactive: -0.974%
6,CC(C)(C)C(=O)NC(Sc1ccccc1)C(Cl)(Cl)Cl (stereo not drawn),inactive: -0.362%
7,CCOc1ccc(C2=NCC(CBr)S2)cc1 (stereo not drawn),inactive: -9.48%
8,O=P1(Nc2nc3ccc(Cl)cc3s2)COc2ccccc2O1 (stereo not drawn),inactive: -0.973%
9,CC(=O)Nc1ccc(Oc2c([N+](=O)[O-])cc([N+](=O)[O-])cc2[N+](=O)[O-])cc1,inactive: 0.271%
10,CC(=O)Nc1ccc([As](=O)(O)O)c(O)c1,inactive: 3.85%
11,C[C@H]1OP(=O)(Oc2ccccc2)C[C@@H]2O[C@@H]21 (stereo partly drawn),inactive: -1.1%
12,C[C@@H]1C=CCP(=O)(Oc2ccccc2)O1 (stereo partly drawn),inactive: -0.633%
13,Cc1ccc(OP(=O)(Nc2nccs2)Oc2ccc(C)cc2)cc1,inactive: -0.911%
14,COc1ccccc1OP(=O)(Nc1ccc(C)cn1)Oc1ccccc1OC,inactive: 0.599%
15,CN1CCCC(OC(=O)C(c2ccccc2)c2ccccc2)C1 (stereo not drawn),inactive: -0.835%
16,Clc1ccc(Cl)c(NC2=NCC(CBr)S2)c1 (stereo not drawn),inactive: -2.4%
17,NC(=O)c1cc([N+](=O)[O-])cc([N+](=O)[O-])c1N,inactive: 0.154%
18,Cc1ccc(N/C(=N/P(=O)(N2CCOCC2)N2CCOCC2)N2CCOCC2)cc1,inactive: -0.594%
19,Nc1cc(N)c2nonc2c1[N+](=O)[O-],inactive: -0.0135%
20,CC(C)CC(=O)NC(Sc1ccc(Cl)cc1)C(Cl)(Cl)Cl (stereo not drawn),inactive: -2.14%
21,O=C(NC(Sc1ccncn1)C(Cl)(Cl)Cl)c1ccccc1 (stereo not drawn),inactive: 0.818%
22,Cc1c2non([O-])c-2c(C)[n+](=O)[n+]1[O-],inactive: -11.7%
23,Oc1ccccc1CNc1ccccn1,inactive: 9.09%
24,Cc1ccc(NP(=O)(Oc2ccccc2F)Oc2ccccc2F)nc1,inactive: 0.627%
25,Cc1cc(SC(NC(=O)c2ccc(F)cc2)C(Cl)(Cl)Cl)ncn1 (stereo not drawn),inactive: 2.41%
